What was measured:
CD38 = CD38 (Homo sapiens, UniProt P28907); experiment: PC6 in vitro assay, enzymatic inhibition of CD38; format: biochemical; details: for IC50: read-out: IC50 (enzymatic inhibition of CD38)
hSARM1 28–724 = hSARM1 28–724 (Homo sapiens, UniProt Q6SZW1); experiment: PC6 fluorescence assay of SARM1 NADase (hydrolase) activity; details: read-out: IC50 (PC6 assay, SARM1 hydrolase); recombinant hSARM1 28–724 pre-incubated with NMN
[1] = tested on: SARM1 TIR domain (DmrB–TIR); experiment: DmrB–TIR dimerization (AP20187)-induced cell death in 293T cells; details: 24 h after AP20187 addition

Protein sequences, listed by entry. Tags and fused reporters are not part of them. Residues count along the entry.
UniProt P28907, whole entry: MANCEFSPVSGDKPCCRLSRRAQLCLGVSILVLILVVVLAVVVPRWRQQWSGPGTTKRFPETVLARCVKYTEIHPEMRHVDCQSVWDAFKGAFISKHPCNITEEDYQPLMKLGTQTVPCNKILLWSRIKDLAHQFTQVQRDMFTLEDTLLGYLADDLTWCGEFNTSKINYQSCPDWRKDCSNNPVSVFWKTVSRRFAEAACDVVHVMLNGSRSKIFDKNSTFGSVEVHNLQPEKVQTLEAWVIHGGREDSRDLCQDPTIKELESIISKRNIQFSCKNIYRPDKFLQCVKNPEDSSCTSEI
UniProt Q6SZW1, 28-724 limits assumed: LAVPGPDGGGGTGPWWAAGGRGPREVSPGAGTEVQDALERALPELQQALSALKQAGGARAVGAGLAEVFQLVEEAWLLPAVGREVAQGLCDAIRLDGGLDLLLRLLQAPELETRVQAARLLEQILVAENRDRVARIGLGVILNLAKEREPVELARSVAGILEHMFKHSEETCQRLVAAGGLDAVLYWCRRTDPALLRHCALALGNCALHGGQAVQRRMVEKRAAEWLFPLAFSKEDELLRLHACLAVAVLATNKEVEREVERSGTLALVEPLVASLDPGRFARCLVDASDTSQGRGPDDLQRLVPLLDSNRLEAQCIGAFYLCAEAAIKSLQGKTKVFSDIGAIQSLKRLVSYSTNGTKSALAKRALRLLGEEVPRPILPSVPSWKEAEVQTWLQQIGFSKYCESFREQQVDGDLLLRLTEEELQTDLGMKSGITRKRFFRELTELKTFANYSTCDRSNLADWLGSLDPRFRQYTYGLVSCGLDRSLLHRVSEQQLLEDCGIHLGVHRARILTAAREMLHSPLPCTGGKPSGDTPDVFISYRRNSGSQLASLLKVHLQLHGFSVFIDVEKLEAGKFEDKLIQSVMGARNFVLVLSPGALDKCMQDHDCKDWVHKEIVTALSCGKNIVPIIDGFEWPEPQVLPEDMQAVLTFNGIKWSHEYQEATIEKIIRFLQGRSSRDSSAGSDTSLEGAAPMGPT

| IC50 (CD38) | IC50 (hSARM1 28–724) | inhibitory effect on the enzymatic activity of CD38 (CD38; in words) | SMILES | prevention of DmrB–TIR-dependent cell death (cell viability) [1] |
| --- | --- | --- | --- | --- |
| > 10000 nM | 56.8 nM | – | O=C(NCc1ccc(Cl)cc1)c1cc(P2(=O)CCCCC2)cc2c(-c3ccncc3)n[nH]c12 | – |
| > 10000 nM | 21.4 nM | – | S=C(NCc1ccc(Cl)cc1)Nc1cnn(-c2ccncc2)c1 | – |

More lines, now with the values behind:

| SMILES | IC50 (CD38) | IC50 (hSARM1 28–724) | inhibitory effect on the enzymatic activity of CD38 (CD38; in words) | prevention of DmrB–TIR-dependent cell death (cell viability) [1] |
| --- | --- | --- | --- | --- |
| COCCOC1CCC(Nc2cc(=O)n(C)c3ccc(-c4cncs4)cc23)CC1 (stereo not drawn) | – | – | potent inhibition | – |
| N#Cc1c(F)cc(CCC(=O)Nc2[nH]nc3c2CCOc2cnccc2-3)cc1F | – | 33.6 nM | – | – |
| CP(C)(=O)c1cc(C(=O)NCc2ccc(Cl)cc2)c2[nH]nc(-c3ccncc3)c2c1 | > 10000 nM | 56.3 nM | – | preserved cell viability |

From publication PMC11428815, “Characterization of Novel SARM1 Inhibitors for the Treatment of Chemotherapy-Induced Peripheral Neuropathy” (Biomedicines, 2024)
